# Antibody variant affinities, Ab-91 heavy chain, assay 2

Target: peptide PDVDLGDISGINAS, taken from heptad repeat 2 (HR2) of SARS-CoV-2 spike.

Parent: Ab-91, a human scFv built as VL, a (GGGGS)3 linker, VH. Only the CDRs of the heavy chain vary.
VL: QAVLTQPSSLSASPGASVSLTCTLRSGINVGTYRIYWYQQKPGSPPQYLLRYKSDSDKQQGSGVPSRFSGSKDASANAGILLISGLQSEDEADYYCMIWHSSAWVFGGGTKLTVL
VH: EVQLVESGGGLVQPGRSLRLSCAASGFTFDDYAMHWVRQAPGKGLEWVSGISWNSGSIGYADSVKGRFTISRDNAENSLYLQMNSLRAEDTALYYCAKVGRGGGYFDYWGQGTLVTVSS

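The starting antibody came from a phage panning campaign against this peptide. AAYL51 was designed without a model: most single CDR substitutions and a random sample of double and triple ones. AlphaSeq pools MATa yeast showing the antibodies with MATalpha yeast showing the peptide. After mating in shaken culture at 30 °C for 16 h, diploids were selected and their barcode pairs sequenced. Each replicate has its own calibration line, from reference interactions of the BCL2 family. Each pool was mated in three replicate cultures.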

The parent's heavy chain CDRs are GFTFDDYAMH, GISWNSGSIGYADSVK, VGRGGGYFDY; each variant's own CDRs replace them letter for letter.
This list gathers variants with a substitution at K65 (VH, numbered from residue 1).
Scale: log10 of Kd in nM, estimated from mating counts; low values are strong binders.
Averages over replicates are reported, and they cover detected replicates only.
An entry "nd" has no value in the source: the pair was not observed among the diploids in any replicate. This suggests poor binding but is not conclusive.

Variant GFTFDDYAMH / GISWNSGSIGYAASVT / VGRGGNYFDY gave nd (0 of 3 replicates). Variant GLAFDDYAMH / GISWNSGSIGYADSVN / VGRGGGYFDY showed nd (0 of 3 replicates). Variant GFTFDDYAMH / GISWDSGSIGYADSVD / VGRGGGYFGY gave 4.86 (3 of 3 replicates). Variant GFTFDDYAMH / GISWNSGSIGYADSVR / VGRGGGYFDQ showed nd (0 of 3 replicates). Variant GFTFDDYAMH / GISWNSGSIGYADSVR / VGRGGYYFDQ gave 4.19 (1 of 3 replicates). With GFTFDDYAMH / GISWNSGSIGYADSVT / VERGGGYFDY the result was nd (0 of 3 replicates). Variant GFTFDDYAMH / GISLNSGIIGYADSVP / VGRGGGYFDY gave 4.15 (2 of 3 replicates). With GFTFDPYAKH / GISWNSGSIGYADSVA / VGRGGGYFDY the result was nd (0 of 3 replicates). Variant GFTFDDYAMH / GISWNSGSIGYYDRVP / VGRGGGYFDY gave 4.97 (1 of 3 replicates).

For GFTFDDYAMH / GISVNSGSIGYADSVN / VGRGGPYFDY, the assay gave 5.15 (3 of 3 replicates). Variant GFTFDDYAMH / GISWNSGSIGYCDSVA / VGRGGGYMDY showed 3.16 (2 of 3 replicates). For GTTFDDYAMH / NISWNSGSIGYADSVA / VGRGGGYFDY, the assay gave 4.88 (1 of 3 replicates). Variant GWTFDDYAMH / GISWNSGSIGYADSVQ / VGRGGGYFQY gave 3.92 (1 of 3 replicates). For GFTFDDYAMH / GISWNSGSIGYLDSVC / SGRGGGYFDY, the assay gave nd (0 of 3 replicates). Variant GFTFDDYAMH / GISWNSGSIGYAISWI / VGRGGGYFDY showed 4.15 (1 of 3 replicates). Variant GFTFDDYAMH / GISWNSGSWRYADSVQ / VGRGGGYFDY gave 5.10 (2 of 3 replicates). With GFTFDDYAMH / GISWNKGSIGYADSVY / YGRGGGYFDY the result was 4.54 (1 of 3 replicates). Variant GFTFDDYAMH / GISWNSTSIGYADSVW / VGRGGGYFWY gave 3.04 (1 of 3 replicates).

With GFTEDDYAMH / GISWNSGSIGYACSVR / VGRGGGYFDY the result was nd (0 of 3 replicates). Variant GFTFDDNAMH / GISWNSGSIGQADSVH / VGRGGGYFDY gave nd (0 of 3 replicates). Variant GFTFDDYAMH / GISWNSGSIGYADSVN / VGRFGGYFDY gave 4.06 (2 of 3 replicates). With GFTFDDYAMH / GISWNSGSIGYADSVA / CGRGGCYFDY the result was 5.09 (3 of 3 replicates). For GFTFDDYAMH / GISWNKGSIGYADSVY / VGRGGGYFDY, the assay gave 4.21 (3 of 3 replicates). Variant GFTFDDYAMH / GISWNSGDIEYADSVT / VGRGGGYFDY gave 5.86 (2 of 3 replicates). With GFTFDDYAMH / GISWNSVSIGYADSVD / VGRGGGYFDY the result was nd (0 of 3 replicates). For GFTFDDYAMH / GISWNHGSTGYADSVV / VGRGGGYFDY, the assay gave 1.24 (3 of 3 replicates). Variant GFTFDDMAMH / GISWNSGSIGYADSVF / VPRGGGYFDY showed 3.96 (2 of 3 replicates).

Variant GWTFLDYAMH / GISWNSGSIGYADSVP / VGRGGGYFDY gave 5.48 (2 of 3 replicates). Variant GFTFDDYAMH / WISWNSGSIGYADSVW / VGRGGGYFDY gave 4.47 (2 of 3 replicates). Variant GFTFDDYMMH / GISWNSGSIGYADSVE / VWRGGGYFDY showed nd (0 of 3 replicates). With GFTFDDYAMH / GISWNSGSIGHIDSVH / VGRGGGYFDY the result was 5.44 (2 of 3 replicates). Variant GFTFDDYAMH / GIGWNSGSIGYADSVD / VMRGGGYFDY gave nd (0 of 3 replicates).

4 of these entries, quoted again:

With GFTFDDYAMH / GISWNSGDIEYADSVT / VGRGGGYFDY the result was 5.86 (2 of 3 replicates).
With GFTFDDYAMH / GISWNSGSIGYADSVT / VERGGGYFDY the result was nd (0 of 3 replicates).
With GFTFDDYAMH / GISWNKGSIGYADSVY / VGRGGGYFDY the result was 4.21 (3 of 3 replicates).
With GFTFDDYAMH / GISWNSGSIGYADSVR / VGRGGGYFDQ the result was nd (0 of 3 replicates).

For reference, the parent read 1.86 as the reference entry and 0.88 as a member of this library.
Three control strains display no target. For library AAYL51, 21% of the pairings with them gave a signal, with a median of 4.54 and one signal in twenty below 3.26, so weak values seen in few replicates may be background.

From the AlphaSeq antibody data of Engelhart et al. 2022 (doi:10.1038/s41597-022-01779-4), copy in the FLAb collection.